Tests used:
[1] = target: 5-hydroxytryptamine receptor 2A (Rattus norvegicus, UniProt P14842)
[2] = target: T1, 5-hydroxytryptamine receptor 2C (Rattus norvegicus, UniProt P08909)
T1 sequence (P08909 whole entry): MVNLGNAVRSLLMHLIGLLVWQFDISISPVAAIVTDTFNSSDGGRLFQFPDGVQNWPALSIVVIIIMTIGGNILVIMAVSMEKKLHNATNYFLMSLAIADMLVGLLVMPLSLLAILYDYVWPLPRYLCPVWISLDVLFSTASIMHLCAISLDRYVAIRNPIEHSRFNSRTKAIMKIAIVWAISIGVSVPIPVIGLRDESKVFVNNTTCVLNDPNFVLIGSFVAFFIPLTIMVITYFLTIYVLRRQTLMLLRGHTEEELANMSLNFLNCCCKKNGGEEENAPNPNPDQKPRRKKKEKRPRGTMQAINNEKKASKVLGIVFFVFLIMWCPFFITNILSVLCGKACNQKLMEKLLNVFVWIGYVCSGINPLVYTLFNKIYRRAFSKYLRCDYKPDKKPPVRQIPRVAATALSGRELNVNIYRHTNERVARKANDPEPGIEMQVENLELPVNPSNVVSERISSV

Amino acid sequences for entries named in this document (tags omitted).
UniProt P14842, whole entry: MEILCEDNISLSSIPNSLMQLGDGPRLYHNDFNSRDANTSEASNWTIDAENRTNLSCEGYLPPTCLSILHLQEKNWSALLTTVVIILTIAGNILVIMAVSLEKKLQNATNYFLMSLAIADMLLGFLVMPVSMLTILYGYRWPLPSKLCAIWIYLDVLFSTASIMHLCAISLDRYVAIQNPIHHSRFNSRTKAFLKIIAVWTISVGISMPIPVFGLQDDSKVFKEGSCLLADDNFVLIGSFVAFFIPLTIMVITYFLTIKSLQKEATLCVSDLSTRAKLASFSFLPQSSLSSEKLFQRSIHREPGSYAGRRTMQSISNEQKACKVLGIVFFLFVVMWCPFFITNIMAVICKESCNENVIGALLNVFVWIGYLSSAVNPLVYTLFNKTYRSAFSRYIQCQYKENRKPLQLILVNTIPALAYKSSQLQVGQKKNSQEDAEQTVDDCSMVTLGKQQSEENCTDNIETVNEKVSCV

CN1CCN(C2=Nc3ccccc3Oc3ccc(Cl)cc32)CC1 [13-chloro-10-(4-methylpiperazin-1-yl)-2-oxa-9-azatricyclo[9.4.0.0^{3,8}]pentadeca-1(11),3,5,7,9,12,14-heptaene]
Ki [1]: 2 nM

O=C(CCCN1CCC2(CC1)C(=O)NCN2c1ccccc1)c1ccc(F)cc1 [8-[4-(4-fluorophenyl)-4-oxidanylidene-butyl]-1-phenyl-1,3,8-triazaspiro[4.5]decan-4-one]
Ki [1]: 0.4 nM
Ki [2]: 957 nM

— BindingDB's records for PubMed 1347569 (Stanford University, 1992)
